{
  "source": "PubChem BioAssay AID276",
  "about": "(DTP/NCI, 2004)",
  "system": "B6C3F1 mice, Lewis lung carcinoma iv, survival T/C",
  "test": "NCI In Vivo Anticancer Drug Screen. Data for tumor model Lewis Lung Carcinoma (intravenous) in B6C3F1 mice",
  "conditions": "endpoint: median survival time; dose: 25.0 mg/kg/injection; schedule: Q01DX009 (ip); vehicle: dextrose; higher = longer survival",
  "experimental": "The antitumor activity of compounds was measured in mice bearing transplantable tumors. Survival or tumor size were measured and the results are expressed as the measurement made in the treated group (T) divided by the measurement made in the vehicle treated control group (C). The tumor model used in this assay is Lewis Lung Carcinoma (intravenous) in B6C3F1 mice",
  "note": "Toxic doses and inconclusive results are not listed.",
  "data": [
    {"molecule": "O=C(O)CC(=O)O.[NH-]CC[NH-].[Pt+2]", "values": [
      {"measurement": "T/C", "result": "156 % of control"}
    ]}
  ]
}
